In article PMC3794980, “Identification of Conserved and HLA Promiscuous DENV3 T-Cell Epitopes” (PLoS Neglected Tropical Diseases, 2013):
Read-outs that look alike come from different tables or passages of the source.

By UniProt entry, the sequences of proteins in these tests, tags left out. Residues count along the entry.
UniProt P79483, 30-266: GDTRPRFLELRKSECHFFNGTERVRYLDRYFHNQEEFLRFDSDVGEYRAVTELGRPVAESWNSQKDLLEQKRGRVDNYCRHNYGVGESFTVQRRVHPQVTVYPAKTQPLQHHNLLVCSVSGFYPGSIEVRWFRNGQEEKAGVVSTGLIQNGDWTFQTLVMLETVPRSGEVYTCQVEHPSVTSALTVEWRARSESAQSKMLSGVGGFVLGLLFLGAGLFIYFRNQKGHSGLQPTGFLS
UniProt Q30154, 30-266: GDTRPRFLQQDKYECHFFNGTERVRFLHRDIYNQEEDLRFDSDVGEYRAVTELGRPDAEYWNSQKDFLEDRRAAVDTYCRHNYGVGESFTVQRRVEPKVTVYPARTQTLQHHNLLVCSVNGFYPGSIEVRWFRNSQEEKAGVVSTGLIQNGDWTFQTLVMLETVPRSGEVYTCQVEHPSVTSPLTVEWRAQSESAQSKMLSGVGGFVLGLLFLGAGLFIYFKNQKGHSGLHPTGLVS

Tests used:
DRB1*0301 = DRB1*0301 (Homo sapiens, UniProt P01903+P01911, A100K/A102G/A103R/A169T/F55Y/I96L/K41T/L162R/M171V/P40S/Q125H/Q178H/Q39Y/R42S/S66N/T106N/T262R/W38E/Y61H); test: biochemical; assay type: binding
DRB1*0802 = DRB1*0802 (Homo sapiens, UniProt P01903+P01911, A100R/A103L/A169T/F76Y/H45Y/I96F/K41T/L162R/M171V/P40S/Q125H/Q178H/Q39Y/Q99D/R218S/R42G/S66Y/V115G/W38E); test: biochemical; assay type: binding
DRB1*0701 = DRB1*0701 (Homo sapiens, UniProt P01903+P01911, A100R/A102G/A103Q/D57E/D86V/E43K/F76Y/K127E/L162R/M171V/P40G/Q125H/Q99D/R33Q/R42Y/R54Q/S133A/S66F/T210M/V115G/Y107V/Y59L/Y89S); test: biochemical; assay type: binding
DRB1*0901 = DRB1*0901 (Homo sapiens, UniProt P01903+P01911, A100R/A103E/D57H/D86V/F55Y/F60I/F76Y/I96F/K127E/L162R/M171V/P40D/Q125H/Q99R/R33Q/R42F/S133A/S66N/T210M/V115G/W38K/Y107V/Y59G/Y89S); test: biochemical; assay type: binding
DRB1*0401 = DRB1*0401 (Homo sapiens, UniProt P01903+P01911, A100K/A169T/F76Y/I96L/K127E/L162R/M171V/N62H/P40V/Q125Y/R42H/S133A/S149N/S66Y/V115G/V209L/W38E); test: biochemical; assay type: binding
DRB1*1101 = DRB1*1101 (Homo sapiens, UniProt P01903+P01911, A100R/A169T/A87E/I96F/K41T/L162R/M171V/P40S/Q125H/Q178H/Q39Y/Q99D/R42S/S66Y/T262R/V115G/W38E); test: biochemical; assay type: binding
DRB1*1501 = DRB1*1501 (Homo sapiens, UniProt P01903+P01911); test: biochemical; assay type: binding
DRB1*0101 = DRB1*0101 (Homo sapiens, UniProt P01903+P01911, A100R/D57E/F55L/F60I/F76Y/I96L/L162R/M171V/P40L/Q125E/R42F/V115G/Y59C); test: biochemical; assay type: binding
DRB1*1302 = DRB1*1302 (Homo sapiens, UniProt P01903+P01911, A100E/A169T/K41T/L162R/M171V/P40S/Q125H/Q178H/Q39Y/Q99D/R42S/S66N/T262R/V115G/W38E/Y61H); test: biochemical; assay type: binding
DRB1*0405 = DRB1*0405 (Homo sapiens, UniProt P01903+P01911, A100R/A169T/D86S/F76Y/I96L/K127E/L162R/M171V/N62H/P40V/Q125Y/R42H/S133A/S149N/S66Y/V115G/V209L/W38E); test: biochemical; assay type: binding
DRB3*0101 = DRB3*0101 (Homo sapiens, UniProt P01903+P79483); test: biochemical; assay type: binding
DRB1*0404 = DRB1*0404 (Homo sapiens, UniProt P01903+P01911, A100R/A169T/F76Y/I96L/K127E/L162R/M171V/N62H/P40V/Q125Y/R42H/S133A/S149N/S66Y/V209L/W38E); test: biochemical; assay type: binding
DRB5*0101 = DRB5*0101 (Homo sapiens, UniProt P01903+Q30154); test: biochemical; assay type: binding; conditions: read-out: Binding Affinity (nM) DRB5*0101
DRB4*0101 = DRB4*0101 (Homo sapiens, UniProt P01903+P13762, G164S); test: biochemical; assay type: binding
[1] = system: HLA-DR4 (HLA-DRA1*0101; -DRB1*0401) transgenic mice
[2] = read-out: Binding Affinity (nM) DRB1*1101
[3] = read-out: Binding Affinity (nM) DRB3*0101
[4] = read-out: Binding Affinity (nM) DRB1*0701

| Molecule | IC50 (DRB1*0802) [µM] | IC50 (DRB1*0701) [nM] | IC50 (DRB1*0901) [nM] | IC50 (DRB1*0401) [nM] | IC50 (DRB1*1501) [µM] | IC50 (DRB1*0101) [µM] | IC50 (DRB1*0405) [µM] | IC50 (DRB3*0101; [3]) [nM] | IC50 (DRB1*0404) [µM] | IC50 (DRB1*0301) [nM] | IC50 (DRB1*1101) [nM] | other results |
| --- | --- | --- | --- | --- | --- | --- | --- | --- | --- | --- | --- | --- |
| CC(C)C[C@H](N)C(=O)N1CCC[C@H]1C(=O)N[C@@H](Cc1c[nH]c2ccccc12)C(=O)N[C@H](C(=O)N[C@@H](CO)C(=O)NCC(=O)N[C@@H](C)C(=O)N[C@H](C(=O)N[C@H](C(=O)N[C@@H](CCC(=O)O)C(=O)N[C@H](C(=O)N1CCC[C@H]1C(=O)N[C@H](C(=O)N[C@@H](Cc1c[nH]c2ccccc12)C(=O)N[C@@H](CC(N)=O)C(=O)O)[C@@H](C)O)[C@@H](C)O)[C@@H](C)O)[C@@H](C)O)[C@@H](C)O | 5.75 | 12200 | 3610 | 1290 | 3.82 | 3.06 | 2.85 | > 20000 | 6.21 | – | – | IC50 (DRB1*0301; read-out: Binding Affinity (nM) DRB1*0301): > 20000 nM; IC50 (DRB1*1101; [2]): > 20000 nM; IC50 (DRB1*1302; read-out: Binding Affinity (nM) DRB1*1302): > 20000 nM; IC50 (DRB5*0101): > 20000 nM |
| CC[C@H](C)[C@H](NC(=O)[C@@H]1CCCN1C(=O)[C@H](CCC(=O)O)NC(=O)[C@H](CC(C)C)NC(=O)[C@@H](N)CS)C(=O)N[C@@H](CCC(=O)O)C(=O)NCC(=O)N[C@@H](CCCCN)C(=O)N[C@H](C(=O)N[C@H](C(=O)N[C@@H](CCC(N)=O)C(=O)N[C@@H](Cc1ccc(O)cc1)C(=O)N[C@@H](CCC(=O)O)C(=O)N[C@@H](CC(N)=O)C(=O)N[C@@H](CC(C)C)C(=O)O)C(C)C)C(C)C [Envelope 121-135] | 2.75 | 4070 | 3830 | – | 0.404 | – | 7.14 | > 20000 | 6.15 | 2970 | 7880 | IC50 (DRB1*0401; read-out: Binding Affinity (nM) DRB1*0401): > 20000 nM; IC50 (DRB1*1302): 1280 nM |
| CC[C@H](C)[C@H](NC(=O)[C@H](CCC(=O)O)NC(=O)[C@H](C)NC(=O)[C@@H](NC(=O)[C@@H](NC(=O)CNC(=O)[C@@H](N)CCC(N)=O)C(C)C)[C@@H](C)O)C(=O)N[C@H](C(=O)N1CCC[C@H]1C(=O)N[C@@H](CCC(N)=O)C(=O)N[C@@H](C)C(=O)N[C@@H](CO)C(=O)N[C@H](C(=O)N[C@H](C(=O)N[C@@H](CCC(=O)O)C(=O)O)[C@@H](C)O)[C@@H](C)O)[C@@H](C)O [Envelope 156-170] | 0.033 | – | – | 7.7 | 7.49 | 0.463 | 0.045 | > 20000 | 0.444 | 2540 | 16200 | IC50 (DRB1*0701; [4]): > 20000 nM; IC50 (DRB1*0901; competitive inhibition of radiolabeled standard peptide, '-' distinct from ND, read-out: Binding Affinity (nM) DRB1*0901): 15200 nM; IC50 (DRB1*1302; competitive inhibition of radiolabeled standard peptide, '-' distinct from ND, read-out: Binding Affinity (nM) DRB1*1302): 6950 nM; IC50 (DRB5*0101): > 20000 nM |
| CC(C)C[C@H](NC(=O)[C@H](CC(=O)O)NC(=O)[C@H](Cc1ccccc1)NC(=O)[C@@H](N)Cc1ccccc1)C(=O)N1CCC[C@H]1C(=O)N[C@@H](CC(C)C)C(=O)N1CCC[C@H]1C(=O)N[C@@H](Cc1c[nH]c2ccccc12)C(=O)N[C@H](C(=O)N[C@@H](CO)C(=O)NCC(=O)N[C@@H](C)C(=O)N[C@H](C(=O)N[C@H](C(=O)N[C@@H](CCC(=O)O)C(=O)O)[C@@H](C)O)[C@@H](C)O)[C@@H](C)O [Envelope 211-225] | 1.8 | – | 3570 | 2160 | 6.17 | 1.22 | 3.58 | > 20000 | – | 6670 | – | IC50 (DRB1*0701; [4]): > 20000 nM; IC50 (DRB1*1101; [2]): > 20000 nM; IC50 (DRB1*1302): 8960 nM; IC50 (DRB4*0101; read-out: Binding Affinity (nM) DRB4*0101): > 20000 nM |
| CC[C@H](C)[C@H](NC(=O)[C@H](CO)NC(=O)[C@@H]1CCCN1C(=O)[C@@H](NC(=O)[C@H](Cc1ccccc1)NC(=O)[C@H](Cc1c[nH]c2ccccc12)NC(=O)[C@@H](NC(=O)[C@@H](NC(=O)[C@H](CCCCN)NC(=O)CN)[C@@H](C)O)C(C)C)C(C)C)C(=O)N[C@@H](CCCCN)C(=O)N[C@@H](C)C(=O)NCC(=O)N[C@@H](CC(N)=O)C(=O)N[C@@H](CC(=O)O)C(=O)O [NS3 357-371] | – | – | 100 | 41 | 0.016 | 0.016 | – | – | – | 436 | 38 | IC50 (DRB3*0101): 711 nM; IC50 (DRB4*0101): 759 nM |
| CSCC[C@H](NC(=O)[C@H](C)NC(=O)[C@H](CCSC)NC(=O)[C@H](CCC(N)=O)NC(=O)[C@@H](NC(=O)[C@@H](NC(=O)[C@H](CCSC)NC(=O)[C@@H]1CCCN1C(=O)[C@@H](NC(=O)[C@@H](NC(=O)[C@H](CC(=O)O)NC(=O)[C@H](Cc1c[nH]c2ccccc12)NC(=O)[C@@H]1CCCN1)C(C)C)C(C)C)C(C)C)[C@@H](C)O)C(=O)N[C@H](C(=O)N[C@@H](CC(=O)O)C(=O)N[C@H](C(=O)N[C@H](C(=O)O)[C@@H](C)O)[C@@H](C)O)[C@@H](C)O [NS5 330-346] | 0.004 | 2460 | – | – | – | – | – | > 20000 | – | – | – | – |
| EAAAIFMTATPPGTA [NS3_309–323] | – | – | – | – | – | – | – | – | – | – | – | Transgenic mice DR4 (ELISPOT) ([1]; representative IFN-γ ELISPOT data, CD8-depleted splenocytes of HLA-DR4 TgM): 354+40 SFC per 1 million cells |
| IVSSVNMVSRLLLNRFT [NS5 227-243] | – | – | – | – | – | – | – | – | – | – | – | Transgenic mice DR4/IE ([1]; IFN-γ ELISPOT of splenocytes from peptide-immunized HLA-DR4 transgenic mice, value printed as mean+spread, '-' = no response listed): 128+16 |
